Test results as given in patent US10196631B2, “Cell separation method using a release system for cell-antibody-substrate conjugates containing a polyethylene glycol spacer unit” (dated 2019).

How the values were obtained:
CD8 positive cells [1] = details: compound 12 with APC-streptavidin, 10 min (FIG. 9)
CD8 positive cells [2] = details: compound 12 at 100 mM with streptavidin, 10 min (FIG. 5)
CD8 positive cells [3] = details: compound 12 with APC-streptavidin, 10 min (FIG. 6)
[4] = system: anti-CD8-PEO-Biotin/anti-Biotin-PE system; assay: Dissociation of the anti-CD8-PEO-Biotin/anti-Biotin-PE system by compounds 10, 12 and 15, flow cytometry; details: different concentrations, room temperature, 10 min incubation (FIG. 4)
CD8 positive cells [5] = details: compound 12 with streptavidin, 10 min (FIG. 8)

SMILES: [N-]=[N+]=NCC(N)=O
- effect of auxiliary release agent added to APC-streptavidin on dissociation of the CD8-PEO-Biotin/anti-Biotin-MicroBead system (CD8 positive cells [1]): further improves the dissociation
- effect of auxiliary release agent on streptavidin-mediated dissociation (CD8 positive cells [2]): accelerates the streptavidin-mediated dissociation process
- effect of auxiliary release agent on APC-streptavidin-mediated dissociation (CD8 positive cells [3]): accelerates the APC-streptavidin-mediated dissociation process
- dissociation of the anti-CD8-PEO-Biotin/anti-Biotin-PE system by auxiliary release agent [4]: highly facilitate the dissociation
- effect of auxiliary release agent added to streptavidin on dissociation of the CD8-PEO-Biotin/anti-Biotin-MicroBead system (CD8 positive cells [5]): further improves the dissociation
